Usually IC50 stands for the concentration needed to halve the response being measured. A low value points to inhibition by little substance.

By UniProt entry, the sequences of proteins in these tests, tags left out.
UniProt Q12809, whole entry N588K: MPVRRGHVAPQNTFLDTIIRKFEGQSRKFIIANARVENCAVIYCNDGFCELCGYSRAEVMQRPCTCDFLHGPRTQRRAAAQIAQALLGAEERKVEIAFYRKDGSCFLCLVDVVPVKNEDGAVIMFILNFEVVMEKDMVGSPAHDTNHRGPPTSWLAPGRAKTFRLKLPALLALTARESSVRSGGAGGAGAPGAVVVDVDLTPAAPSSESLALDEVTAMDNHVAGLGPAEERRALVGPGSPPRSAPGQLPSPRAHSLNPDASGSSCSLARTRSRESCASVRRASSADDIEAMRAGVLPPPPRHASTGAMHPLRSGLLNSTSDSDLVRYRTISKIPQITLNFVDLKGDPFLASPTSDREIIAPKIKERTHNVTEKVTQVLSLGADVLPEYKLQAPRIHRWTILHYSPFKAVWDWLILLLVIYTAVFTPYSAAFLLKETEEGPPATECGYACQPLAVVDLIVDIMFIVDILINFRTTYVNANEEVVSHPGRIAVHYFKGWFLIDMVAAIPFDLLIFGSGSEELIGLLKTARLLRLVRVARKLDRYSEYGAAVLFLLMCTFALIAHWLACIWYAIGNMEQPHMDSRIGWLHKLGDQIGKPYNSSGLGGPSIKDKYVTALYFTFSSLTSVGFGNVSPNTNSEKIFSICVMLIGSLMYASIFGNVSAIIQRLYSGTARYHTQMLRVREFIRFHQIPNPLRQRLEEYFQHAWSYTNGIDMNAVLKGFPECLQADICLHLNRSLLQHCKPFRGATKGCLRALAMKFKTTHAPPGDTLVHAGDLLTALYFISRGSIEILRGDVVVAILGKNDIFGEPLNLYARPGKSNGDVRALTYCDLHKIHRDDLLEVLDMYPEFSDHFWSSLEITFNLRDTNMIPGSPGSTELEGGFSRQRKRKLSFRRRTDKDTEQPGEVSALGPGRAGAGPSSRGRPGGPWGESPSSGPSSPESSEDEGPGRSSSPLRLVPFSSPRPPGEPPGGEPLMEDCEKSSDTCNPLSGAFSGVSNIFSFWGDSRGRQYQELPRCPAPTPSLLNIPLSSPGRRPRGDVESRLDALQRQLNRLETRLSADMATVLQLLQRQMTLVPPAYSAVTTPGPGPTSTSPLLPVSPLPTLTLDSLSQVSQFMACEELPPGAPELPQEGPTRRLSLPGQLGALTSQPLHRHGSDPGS
UniProt Q12809, whole entry N588E: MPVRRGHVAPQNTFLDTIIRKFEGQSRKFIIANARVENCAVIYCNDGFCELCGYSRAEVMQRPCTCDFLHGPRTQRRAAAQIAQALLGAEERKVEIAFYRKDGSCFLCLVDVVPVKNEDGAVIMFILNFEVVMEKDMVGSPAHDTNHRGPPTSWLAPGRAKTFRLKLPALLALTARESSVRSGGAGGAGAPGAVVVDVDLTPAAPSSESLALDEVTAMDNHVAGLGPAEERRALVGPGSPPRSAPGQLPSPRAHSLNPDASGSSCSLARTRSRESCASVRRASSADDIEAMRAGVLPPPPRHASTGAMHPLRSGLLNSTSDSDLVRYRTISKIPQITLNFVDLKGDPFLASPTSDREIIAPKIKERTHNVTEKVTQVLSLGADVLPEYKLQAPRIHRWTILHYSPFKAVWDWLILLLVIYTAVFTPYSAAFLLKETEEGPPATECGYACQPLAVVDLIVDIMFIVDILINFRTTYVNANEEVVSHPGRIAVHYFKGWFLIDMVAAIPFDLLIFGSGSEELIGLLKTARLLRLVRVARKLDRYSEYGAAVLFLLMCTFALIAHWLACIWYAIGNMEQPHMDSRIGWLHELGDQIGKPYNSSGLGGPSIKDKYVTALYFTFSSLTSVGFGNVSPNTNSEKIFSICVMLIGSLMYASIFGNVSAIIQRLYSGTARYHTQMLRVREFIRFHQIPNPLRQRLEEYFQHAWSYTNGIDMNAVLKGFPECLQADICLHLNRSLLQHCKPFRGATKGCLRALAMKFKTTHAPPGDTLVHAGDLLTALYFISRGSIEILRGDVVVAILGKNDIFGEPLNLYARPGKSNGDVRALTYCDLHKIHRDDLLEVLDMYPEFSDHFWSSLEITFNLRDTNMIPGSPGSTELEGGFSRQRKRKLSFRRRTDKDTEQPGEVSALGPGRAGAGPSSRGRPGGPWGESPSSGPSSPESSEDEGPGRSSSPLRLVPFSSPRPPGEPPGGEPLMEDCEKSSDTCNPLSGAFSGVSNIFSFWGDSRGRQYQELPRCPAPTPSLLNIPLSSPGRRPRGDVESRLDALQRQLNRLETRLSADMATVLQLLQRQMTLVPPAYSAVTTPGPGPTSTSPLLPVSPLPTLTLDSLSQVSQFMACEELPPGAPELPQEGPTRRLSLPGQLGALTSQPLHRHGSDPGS

The source of these data is patent US20110151484A1, “hERG MUTANTS AND USES THEREOF” (priority 2008, published 2011).

For one data set, the target named is hERG inactivated state (Homo sapiens, UniProt Q12809).
A further data set has as its target N588K-hERG (Homo sapiens, UniProt Q12809, N588K). Put plainly: cell-based.
For a further data set, the target named is WT-hERG (Homo sapiens, UniProt Q12809). Put plainly: Whole-cell patch clamp drug block, WT-hERG in CHO cells. (In general: The patch-clamp technique gives a direct electrical read-out from membranes.)
A further data set has as its target N588E-hERG (Homo sapiens, UniProt Q12809, N588E). As to the kind of experiment: Whole-cell patch clamp drug block, N588E-hERG in CHO cells. The settings on record: Affinity (IC50) for N588E, block at end of 3 s step to +20 mV, mean ± SEM.

Take `COc1cc(N)c(Cl)cc1C(=O)NC1CCN(CCCOc2ccc(F)cc2)CC1OC` (stereo not shown) [Cisapride]: at hERG inactivated state, the “State preference of binding (in words)” value is “marked preference for binding to the inactive state”.

For the compound `C1CCC(C(CC2CCCCN2)C2CCCCC2)CC1` (stereo not shown) [Perhexiline], the IC50 turned out to be 4.7 ± 1.7 µM on N588K-hERG, 5.9 ± 0.9 µM against WT-hERG and 5 ± 1.8 µM against N588E-hERG.
